Data from patent EP4843994A1, “NOVEL PEPTIDE HAVING MUSCLE FORMATION-PROMOTING ACTIVITY, ANTI-OBESITY ACTIVITY AND ANTI-DIABETIC ACTIVITY AND USES THEREOF” (dated 2026).

How the values were obtained:
3T3-L1 cells [1] = assay: Expression of lipolysis-related proteins in adipocytes (Western blot); conditions: 3T3-L1 adipocytes (MDI cocktail), peptide 5 µM, 50 µM, 48 hours
Experimental: The effect of the peptide of SEQ ID NO: 1 prepared in Preparation Example 1 on the expression of lipolysis-related proteins in adipocytes was analyzed. 3T3-L1 cells (preadipocytes, American Type Culture Collection) were cultured in DMEM medium containing 2% BCS (Bovine Calf Serum) (Welgene, Korea). To differentiate 3T3-L1 cells into adipocytes, cells were seeded into 12-well culture plates at a concentration of 1 x 10^5 cells/well, and when the cells became confluent (Day=2), the medium was replaced once more and cultured for an additional 48 hours. After 48 hours (Day=0), the culture medium was replaced with DMEM medium containing 10% FBS, 1% P/S, 1 µg/ml insulin (Sigma, USA), 0.5 mM isobutylmethylxanthine (IBMX) (Sigma, USA), and 1 µM Dexamethasone (Sigma, USA), and cultured. After 2 days (Day=2), the medium was replaced with DMEM medium containing 10% FBS, 1% P/S, and 1 µg/ml insulin, and cultured. After 3 days (Day=5), the medium was replaced with one containing only 10% FBS and 1% P/S, treated with peptides (5 µM, 50 µM), and cultured for 48 hours. After culturing, lysis buffer was added to lyse the cells, and the protein was obtained by centrifuging at 12,000 rpm and 4°C for 30 minutes. The obtained protein was then quantified using a BCA kit. Subsequently, the protein was electrotransferred onto a membrane after performing SDS-PAGE (sodium dodecyl sulfate-polyacrylamide gel electrophoresis). The membrane to which the protein was attached was blocked by treatment with 5% skim milk, and then the primary antibody was incubated overnight at 4°C. The primary antibodies used are as follows: anti-PLIN antibody (Abcam, US); anti-pHSL antibody (Cell signaling Technology, USA); anti-PGC1α antibody (Cell signaling Technology, USA); anti-β-actin antibody (Santa Cruz, USA). […]

3T3-L1 cells [2] = assay: Expression of adipogenesis-related proteins in adipocytes (Western blot); conditions: 3T3-L1 adipocytes (MDI cocktail), peptide 5 µM, 50 µM, 48 hours
Experimental: 3T3-L1 cells (preadipocytes, American Type Culture Collection) were cultured in DMEM medium containing 2% BCS (Bovine Calf Serum) (Welgene, Korea). To differentiate 3T3-L1 cells into adipocytes, cells were seeded into 12-well culture plates at a concentration of 1 x 10^5 cells/well, and when the cells became confluent (Day=2), the medium was replaced once more and cultured for an additional 48 hours. After 48 hours (Day=0), the culture medium was replaced with DMEM medium containing 10% FBS, 1% P/S, 1 µg/ml insulin (Sigma, USA), 0.5 mM isobutylmethylxanthine (IBMX) (Sigma, USA), and 1 µM Dexamethasone (Sigma, USA), and cultured. After 2 days (Day=2), the medium was replaced with DMEM medium containing 10% FBS, 1% P/S, and 1 µg/ml insulin, and cultured. After 3 days (Day=5), the medium was replaced with one containing only 10% FBS and 1% P/S, treated with peptides (5 µM, 50 µM), and cultured for 48 hours. After culturing, lysis buffer was added to lyse the cells, and then the protein was obtained by centrifuging at 12,000 rpm and 4°C for 30 minutes. The obtained protein was then quantified using a BCA kit. Subsequently, the protein was electrotransferred onto a membrane after performing SDS-PAGE (sodium dodecyl sulfate-polyacrylamide gel electrophoresis). The membrane to which the protein was attached was blocked by treatment with 5% skim milk, and then the primary antibody was incubated overnight at 4°C. The primary antibodies used are as follows: anti-SREBP1 antibody (Abcam, US); anti-FAS antibody (Cell signaling Technology, USA); anti-C/EBPα antibody (Cell signaling Technology, USA); anti-pACCα antibody (Cell signaling Technology, USA); anti-β-actin antibody (Santa Cruz, USA). The reactant was washed with PBS-T, then reacted with secondary antibodies (Peroxidase-conjugated AffiniPure Goat Anti-Rabbit IgG (H+L), Jackson immunoResearch, USA; Peroxidase-conjugated AffiniPure Goat Anti-Mouse IgG (H+L), Jackson immunoResearch, USA) at room temperature for 1 hour, washed again with PBS-T, and then visualized by treatment with a Western detection reagent (Elpis Biotech, Daejeon, Korea) using Gel Doc (Bio-Rad, Hercules, CA, USA).
In the above experiment, 3T3-L1 adipocytes were differentiated using an MDI cocktail, and then the inhibitory effect on adipogenesis caused by peptide treatment was confirmed by measuring the expression levels of related factors. SREBP1 (Sterol Regulatory Element Binding Protein-1) is known to induce the synthesis of lipids and cholesterol, FAS is a fatty acid synthase, and C/EBPα (CCAAT/enhancer-binding protein α) is known to induce adipogenesis through PPAR-γ (Genes Dev. 2002 Jan 1; 16(1): 22-26). […]

## C[C@@H](O)[C@H](NC(=O)CNC(=O)[C@@H](N)Cc1c[nH]cn1)C(=O)N[C@@H](Cc1ccc(O)cc1)C(=O)O
3T3-L1 cells [1]
  expression level of PGC1α: increased
  expression level of PLIN: increased
  expression level of pHSL: increased
3T3-L1 cells [2]
  expression level of C/EBPα: reduced
  expression level of FAS: reduced
  expression level of SREBP1: reduced
  expression level of pACCα: increased
